Data from the kinase profiling compilation of Christmann-Franck et al. (2016).

Chains of the proteins cited; added tags and fusions are not shown.
MKNK1 (human), Q9BUB5, UniProt Q9BUB5, whole entry, looked up, stated change not applied: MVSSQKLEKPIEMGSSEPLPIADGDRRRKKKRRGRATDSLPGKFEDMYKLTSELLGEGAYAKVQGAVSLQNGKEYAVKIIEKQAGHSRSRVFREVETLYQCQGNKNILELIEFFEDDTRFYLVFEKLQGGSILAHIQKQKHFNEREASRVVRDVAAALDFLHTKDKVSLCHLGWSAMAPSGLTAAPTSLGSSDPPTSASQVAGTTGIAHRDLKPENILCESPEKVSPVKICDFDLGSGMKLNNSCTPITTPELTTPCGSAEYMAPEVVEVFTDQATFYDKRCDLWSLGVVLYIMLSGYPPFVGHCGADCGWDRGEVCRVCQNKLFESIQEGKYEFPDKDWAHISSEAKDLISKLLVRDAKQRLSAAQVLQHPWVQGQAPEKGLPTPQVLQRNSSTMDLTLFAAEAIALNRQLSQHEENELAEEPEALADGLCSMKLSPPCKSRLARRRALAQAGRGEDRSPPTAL
PRKCQ (human), Q04759, UniProt Q04759, whole entry P330L, looked up: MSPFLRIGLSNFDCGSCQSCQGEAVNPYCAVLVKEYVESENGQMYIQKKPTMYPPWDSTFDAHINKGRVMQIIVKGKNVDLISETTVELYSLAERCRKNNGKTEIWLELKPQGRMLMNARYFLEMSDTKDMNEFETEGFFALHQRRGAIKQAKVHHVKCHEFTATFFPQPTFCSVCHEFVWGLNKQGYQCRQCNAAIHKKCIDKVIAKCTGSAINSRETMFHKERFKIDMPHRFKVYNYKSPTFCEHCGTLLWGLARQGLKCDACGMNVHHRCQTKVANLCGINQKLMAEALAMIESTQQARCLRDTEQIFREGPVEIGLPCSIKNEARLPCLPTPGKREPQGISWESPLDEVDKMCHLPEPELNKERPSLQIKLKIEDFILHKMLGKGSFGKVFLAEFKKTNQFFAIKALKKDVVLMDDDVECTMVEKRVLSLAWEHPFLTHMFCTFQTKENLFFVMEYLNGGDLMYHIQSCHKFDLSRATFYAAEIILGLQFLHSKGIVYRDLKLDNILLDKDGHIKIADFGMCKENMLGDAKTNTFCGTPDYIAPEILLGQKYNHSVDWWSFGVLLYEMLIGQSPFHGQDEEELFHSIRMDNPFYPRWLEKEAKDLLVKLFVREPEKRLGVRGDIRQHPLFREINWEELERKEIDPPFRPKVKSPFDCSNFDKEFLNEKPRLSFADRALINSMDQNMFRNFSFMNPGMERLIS
MAP2K6 (human), P52564, UniProt P52564, whole entry S207E/T211E, looked up: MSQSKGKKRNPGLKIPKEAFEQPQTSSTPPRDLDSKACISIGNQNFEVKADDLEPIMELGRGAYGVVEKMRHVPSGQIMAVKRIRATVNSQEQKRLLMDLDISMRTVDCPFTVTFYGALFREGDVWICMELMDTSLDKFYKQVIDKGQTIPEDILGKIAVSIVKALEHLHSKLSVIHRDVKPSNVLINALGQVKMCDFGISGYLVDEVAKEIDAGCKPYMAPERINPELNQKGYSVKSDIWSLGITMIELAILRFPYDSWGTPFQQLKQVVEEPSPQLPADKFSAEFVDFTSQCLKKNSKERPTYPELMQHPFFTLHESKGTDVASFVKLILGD
FLT4 (human), P35916, UniProt P35916, whole entry, looked up, stated change not applied: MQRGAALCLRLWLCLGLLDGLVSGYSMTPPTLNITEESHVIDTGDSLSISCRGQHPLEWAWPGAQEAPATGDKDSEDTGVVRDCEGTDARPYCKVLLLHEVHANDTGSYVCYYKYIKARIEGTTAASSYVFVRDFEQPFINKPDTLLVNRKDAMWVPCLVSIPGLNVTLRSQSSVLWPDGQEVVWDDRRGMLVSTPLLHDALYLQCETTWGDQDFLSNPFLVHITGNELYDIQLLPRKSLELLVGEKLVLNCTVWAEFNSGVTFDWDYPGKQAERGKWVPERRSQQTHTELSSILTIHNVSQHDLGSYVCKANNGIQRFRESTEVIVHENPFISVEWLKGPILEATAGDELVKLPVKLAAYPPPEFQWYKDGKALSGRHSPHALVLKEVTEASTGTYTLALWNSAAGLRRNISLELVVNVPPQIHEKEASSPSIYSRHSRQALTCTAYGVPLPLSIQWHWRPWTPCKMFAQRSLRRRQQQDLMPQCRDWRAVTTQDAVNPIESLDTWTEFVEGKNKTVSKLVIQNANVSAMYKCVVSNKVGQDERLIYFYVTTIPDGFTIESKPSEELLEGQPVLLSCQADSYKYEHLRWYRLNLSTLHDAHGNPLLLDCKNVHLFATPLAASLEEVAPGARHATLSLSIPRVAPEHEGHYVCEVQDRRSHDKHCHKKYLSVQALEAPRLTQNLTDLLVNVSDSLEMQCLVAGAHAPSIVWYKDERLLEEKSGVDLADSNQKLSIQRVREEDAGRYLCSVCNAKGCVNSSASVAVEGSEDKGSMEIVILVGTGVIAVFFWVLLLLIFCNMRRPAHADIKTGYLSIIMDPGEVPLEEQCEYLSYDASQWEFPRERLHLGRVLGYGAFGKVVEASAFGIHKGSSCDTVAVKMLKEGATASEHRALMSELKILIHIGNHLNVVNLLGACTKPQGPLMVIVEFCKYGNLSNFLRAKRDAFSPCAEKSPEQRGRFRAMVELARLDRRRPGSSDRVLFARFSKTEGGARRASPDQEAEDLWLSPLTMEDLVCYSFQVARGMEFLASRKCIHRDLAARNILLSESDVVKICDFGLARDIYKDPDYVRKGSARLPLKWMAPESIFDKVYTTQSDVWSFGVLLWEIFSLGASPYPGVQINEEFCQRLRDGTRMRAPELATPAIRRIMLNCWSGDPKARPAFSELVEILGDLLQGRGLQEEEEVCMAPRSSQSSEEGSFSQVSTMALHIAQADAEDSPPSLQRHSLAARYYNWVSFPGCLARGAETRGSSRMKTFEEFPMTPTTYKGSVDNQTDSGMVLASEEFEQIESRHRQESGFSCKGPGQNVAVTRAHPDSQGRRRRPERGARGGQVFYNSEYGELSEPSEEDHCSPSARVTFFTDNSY

Tests used:
Test in all cases: radiometric filter-binding kinase assay, Kinase HotSpot
Conditions in all cases: compound 0.5 µM; ATP 10 µM
[1] = system: MKNK1 (human), Q9BUB5 [T385D; 165-205 del]
[2] = system: PRKCQ (human), Q04759 [P330L]
[3] = system: MAP2K6 (human), P52564 [S207E/T211E]
[4] = system: FLT4 (human), P35916 [Q890H]

Row | Compound | residual activity [1] [%] | residual activity [2] [%] | residual activity [3] [%] | residual activity [4] [%]
1 | O=C1c2ccccc2-[n+]2ccc3c([nH]c4ccccc43)c21 | 90.4 | 79.3 | 114 | 94.8
2 | COc1cc(OC)c(/C=C2\C(=O)Nc3ccccc32)c(OC)c1 | 105 | 94.3 | 92 | 105
3 | O=C1Nc2ccc3ncsc3c2/C1=C/c1c[nH]cn1 | 9.89 | 112 | 56.8 | 12.1
4 | CO[C@H]1[C@@H](OC)C[C@H](C)[C@@H](OC)C2=CC(=O)C=C(NC(=O)/C(C)=C\C=C/[C@H](OC)[C@@H](OC(N)=O)/C(C)=C\[C@@H]1C)C2=O | 110 | 93 | 89.2 | 99.7
